Measurements reported in patent publication US20060063715A1.

Target: TAG-72 antigen (tumor-associated glycoprotein 72) (human)
Assay: competition ELISA against biotin-labeled CC49 IgG (competitor), TAG-72 in a human breast carcinoma extract

Work on “CC49/4-4-20 heterodimer Fv (fraction 5) with 217 linkers (bispecific antibody)” yielded a fold higher protein concentration needed to displace the labeled CC49 IgG (against CC49/212 single-chain Fv) of 200 fold.
